Experimental data reported in US9585875B2, “TRPM8 antagonists” (Dompé S.P.A., priority 2011, dated 2017).

By UniProt entry, the sequences of proteins in these tests, tags left out.
UniProt Q7Z2W7, whole entry: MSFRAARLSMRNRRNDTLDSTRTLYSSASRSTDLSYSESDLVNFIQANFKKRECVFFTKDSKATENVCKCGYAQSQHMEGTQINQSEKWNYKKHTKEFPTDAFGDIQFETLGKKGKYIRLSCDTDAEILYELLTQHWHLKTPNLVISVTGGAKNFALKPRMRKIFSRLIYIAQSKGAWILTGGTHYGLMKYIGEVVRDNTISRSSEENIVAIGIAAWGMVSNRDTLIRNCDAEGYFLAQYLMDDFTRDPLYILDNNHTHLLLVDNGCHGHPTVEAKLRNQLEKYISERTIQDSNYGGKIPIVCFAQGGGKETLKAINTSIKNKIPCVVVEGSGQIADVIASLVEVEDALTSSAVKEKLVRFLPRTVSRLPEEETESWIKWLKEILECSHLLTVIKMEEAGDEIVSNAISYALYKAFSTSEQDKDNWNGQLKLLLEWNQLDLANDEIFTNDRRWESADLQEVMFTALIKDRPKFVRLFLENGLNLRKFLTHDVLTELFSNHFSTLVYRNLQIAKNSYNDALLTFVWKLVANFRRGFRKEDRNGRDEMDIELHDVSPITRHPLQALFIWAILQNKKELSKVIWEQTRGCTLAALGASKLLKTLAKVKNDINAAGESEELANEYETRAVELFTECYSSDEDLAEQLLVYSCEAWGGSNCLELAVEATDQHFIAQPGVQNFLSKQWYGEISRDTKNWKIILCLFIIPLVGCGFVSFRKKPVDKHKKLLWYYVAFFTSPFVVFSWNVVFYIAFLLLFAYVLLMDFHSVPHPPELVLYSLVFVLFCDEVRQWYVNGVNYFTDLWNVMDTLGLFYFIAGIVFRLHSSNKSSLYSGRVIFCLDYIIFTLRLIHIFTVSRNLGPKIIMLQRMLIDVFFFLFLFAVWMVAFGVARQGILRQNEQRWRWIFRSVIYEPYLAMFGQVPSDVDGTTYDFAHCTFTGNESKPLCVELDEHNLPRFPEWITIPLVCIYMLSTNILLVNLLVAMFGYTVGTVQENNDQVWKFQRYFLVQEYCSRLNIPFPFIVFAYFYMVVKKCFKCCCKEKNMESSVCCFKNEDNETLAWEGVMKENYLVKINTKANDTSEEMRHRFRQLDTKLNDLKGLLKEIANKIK

Target: TRPM8 (Homo sapiens, UniProt Q7Z2W7)
Assay: cell-based

IC50: 0.02 µM
SMILES: CCn1nnc(-c2sc(-c3cccc(F)c3)nc2O)n1 [Compound 118, 2-(3-fluorophenyl)-5-(2-ethyl-2H-tetrazol-5-yl)-1,3-thiazol-4-ol]
